Measurements published in article PMC3034772 (Pharmaceutical research, 2010).
Values joined by “and” are separate entries in the source; they are usually repeats but may differ in a detail not shown here. Identical values can stand only once.

Tests used:
[1] = PAMPA
[2] = In combo PAMPA-BBB model, calculated log Po in situ

Structure (SMILES)	obs–calc (log Po^in situ) [2]	other results
NC(=O)N1c2ccccc2C=Cc2ccccc21 [Carbamazepine]	–	log Po [1]: −4.54
CCC1(C)CC(=O)NC1=O (stereo not shown) [Ethosuximide]	–	log PABL [1]: −4.41
N[C@H](Cc1ccc(F)cc1)C(=O)O [p-F-Phenylalanine(D)]	0.1	–
N[C@@H](Cc1ccc(F)cc1)C(=O)O [p-F-Phenylalanine(L)]	1.4 and 1.5	–
